From patent US8609836B2, “4-aryl-2-anilino-pyrimidines” (Janssen Pharmaceutica NV, priority 2008, dated 2013)

Sequences of proteins named here, by UniProt entry; tags and fusion partners are left off.
UniProt O00444, whole entry: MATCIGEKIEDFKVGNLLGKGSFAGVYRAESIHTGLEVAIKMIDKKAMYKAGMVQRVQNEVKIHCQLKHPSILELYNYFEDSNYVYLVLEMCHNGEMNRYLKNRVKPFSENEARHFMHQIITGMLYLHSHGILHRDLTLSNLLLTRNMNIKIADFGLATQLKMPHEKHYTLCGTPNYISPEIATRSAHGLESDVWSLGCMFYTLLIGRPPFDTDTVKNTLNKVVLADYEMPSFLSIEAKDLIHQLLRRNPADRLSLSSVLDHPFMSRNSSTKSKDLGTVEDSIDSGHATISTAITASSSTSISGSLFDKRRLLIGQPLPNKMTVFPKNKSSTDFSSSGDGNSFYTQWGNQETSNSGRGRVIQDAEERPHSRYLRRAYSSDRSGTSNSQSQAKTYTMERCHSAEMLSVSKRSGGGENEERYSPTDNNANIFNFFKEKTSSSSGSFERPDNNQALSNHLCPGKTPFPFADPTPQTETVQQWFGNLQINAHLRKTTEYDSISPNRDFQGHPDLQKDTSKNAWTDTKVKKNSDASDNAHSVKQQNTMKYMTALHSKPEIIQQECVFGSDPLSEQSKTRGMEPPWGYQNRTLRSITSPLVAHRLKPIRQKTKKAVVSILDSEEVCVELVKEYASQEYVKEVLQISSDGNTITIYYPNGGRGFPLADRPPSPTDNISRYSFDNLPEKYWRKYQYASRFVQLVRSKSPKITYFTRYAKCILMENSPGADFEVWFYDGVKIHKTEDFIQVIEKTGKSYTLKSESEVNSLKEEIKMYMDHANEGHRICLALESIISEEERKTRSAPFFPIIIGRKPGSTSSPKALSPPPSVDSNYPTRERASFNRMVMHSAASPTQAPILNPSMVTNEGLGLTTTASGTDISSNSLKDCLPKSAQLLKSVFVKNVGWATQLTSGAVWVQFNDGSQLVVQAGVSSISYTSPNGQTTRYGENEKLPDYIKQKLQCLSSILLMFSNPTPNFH
UniProt Q96GD4, whole entry: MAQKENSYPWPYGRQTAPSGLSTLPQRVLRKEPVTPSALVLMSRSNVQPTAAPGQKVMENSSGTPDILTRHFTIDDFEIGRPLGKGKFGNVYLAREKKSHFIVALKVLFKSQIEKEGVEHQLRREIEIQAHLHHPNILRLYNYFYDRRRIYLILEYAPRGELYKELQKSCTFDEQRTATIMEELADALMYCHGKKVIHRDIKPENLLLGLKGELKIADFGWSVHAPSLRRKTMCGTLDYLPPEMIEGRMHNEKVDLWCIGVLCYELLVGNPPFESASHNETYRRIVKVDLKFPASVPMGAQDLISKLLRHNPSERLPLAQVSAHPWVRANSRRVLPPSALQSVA
UniProt P49841, whole entry: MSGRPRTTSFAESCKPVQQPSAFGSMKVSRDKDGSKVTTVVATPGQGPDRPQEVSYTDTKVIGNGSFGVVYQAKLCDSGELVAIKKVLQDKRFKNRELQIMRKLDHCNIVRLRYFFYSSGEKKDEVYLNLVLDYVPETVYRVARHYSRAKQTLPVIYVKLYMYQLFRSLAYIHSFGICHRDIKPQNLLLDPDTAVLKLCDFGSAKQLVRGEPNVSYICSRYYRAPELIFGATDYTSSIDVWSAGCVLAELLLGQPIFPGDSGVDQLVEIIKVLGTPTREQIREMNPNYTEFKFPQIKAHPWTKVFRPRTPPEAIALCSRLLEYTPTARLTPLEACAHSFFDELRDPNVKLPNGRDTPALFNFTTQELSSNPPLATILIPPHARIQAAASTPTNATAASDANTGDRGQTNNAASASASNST
UniProt P06493, whole entry: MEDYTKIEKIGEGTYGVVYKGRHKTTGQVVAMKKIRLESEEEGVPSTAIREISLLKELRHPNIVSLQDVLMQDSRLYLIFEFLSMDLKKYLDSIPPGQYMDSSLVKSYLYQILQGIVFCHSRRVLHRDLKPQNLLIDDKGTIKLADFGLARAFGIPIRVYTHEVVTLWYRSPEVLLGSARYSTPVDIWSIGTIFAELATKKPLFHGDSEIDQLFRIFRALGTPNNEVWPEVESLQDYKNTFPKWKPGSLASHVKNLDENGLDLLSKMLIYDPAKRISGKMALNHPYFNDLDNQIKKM
UniProt P11802, whole entry: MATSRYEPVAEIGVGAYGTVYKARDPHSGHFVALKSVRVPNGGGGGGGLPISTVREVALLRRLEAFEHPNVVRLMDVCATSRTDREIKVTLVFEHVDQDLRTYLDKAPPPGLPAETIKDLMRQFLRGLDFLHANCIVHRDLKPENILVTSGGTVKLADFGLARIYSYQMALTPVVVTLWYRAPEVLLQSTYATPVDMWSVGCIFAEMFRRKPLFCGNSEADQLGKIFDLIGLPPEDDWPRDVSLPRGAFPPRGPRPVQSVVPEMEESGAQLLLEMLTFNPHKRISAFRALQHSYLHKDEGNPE
UniProt P53350, whole entry T210D: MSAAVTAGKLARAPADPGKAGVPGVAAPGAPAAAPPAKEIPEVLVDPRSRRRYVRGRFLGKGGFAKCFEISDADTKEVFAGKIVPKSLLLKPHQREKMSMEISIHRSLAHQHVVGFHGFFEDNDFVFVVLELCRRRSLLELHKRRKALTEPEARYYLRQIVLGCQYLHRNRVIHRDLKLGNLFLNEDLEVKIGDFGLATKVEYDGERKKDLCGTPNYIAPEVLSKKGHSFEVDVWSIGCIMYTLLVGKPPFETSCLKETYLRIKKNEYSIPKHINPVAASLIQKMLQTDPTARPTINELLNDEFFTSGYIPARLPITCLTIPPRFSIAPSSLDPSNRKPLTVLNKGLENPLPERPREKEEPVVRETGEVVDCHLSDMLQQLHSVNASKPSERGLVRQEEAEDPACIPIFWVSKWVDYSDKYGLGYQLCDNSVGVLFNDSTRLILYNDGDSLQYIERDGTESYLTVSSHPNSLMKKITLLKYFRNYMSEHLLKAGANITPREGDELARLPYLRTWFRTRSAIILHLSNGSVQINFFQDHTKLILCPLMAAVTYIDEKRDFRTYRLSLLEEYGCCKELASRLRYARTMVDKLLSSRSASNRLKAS
UniProt Q9NYY3, whole entry: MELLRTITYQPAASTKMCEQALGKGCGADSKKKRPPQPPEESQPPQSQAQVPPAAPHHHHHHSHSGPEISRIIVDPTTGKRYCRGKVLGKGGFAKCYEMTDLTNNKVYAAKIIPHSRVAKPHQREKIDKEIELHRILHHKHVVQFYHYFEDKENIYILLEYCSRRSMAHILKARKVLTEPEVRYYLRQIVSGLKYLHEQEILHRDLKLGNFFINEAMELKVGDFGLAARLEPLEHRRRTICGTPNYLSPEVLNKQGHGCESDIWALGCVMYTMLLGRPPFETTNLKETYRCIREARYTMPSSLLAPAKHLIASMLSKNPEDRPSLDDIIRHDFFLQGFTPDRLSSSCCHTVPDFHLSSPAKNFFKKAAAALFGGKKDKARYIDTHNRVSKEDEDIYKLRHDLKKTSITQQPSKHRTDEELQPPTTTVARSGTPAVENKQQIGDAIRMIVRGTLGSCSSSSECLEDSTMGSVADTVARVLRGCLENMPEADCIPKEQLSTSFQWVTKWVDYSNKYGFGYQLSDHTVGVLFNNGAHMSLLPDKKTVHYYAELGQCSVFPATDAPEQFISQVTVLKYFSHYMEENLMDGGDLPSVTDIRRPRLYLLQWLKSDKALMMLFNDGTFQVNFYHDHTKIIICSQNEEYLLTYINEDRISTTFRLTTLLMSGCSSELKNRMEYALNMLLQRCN
UniProt Q9H4B4, whole entry: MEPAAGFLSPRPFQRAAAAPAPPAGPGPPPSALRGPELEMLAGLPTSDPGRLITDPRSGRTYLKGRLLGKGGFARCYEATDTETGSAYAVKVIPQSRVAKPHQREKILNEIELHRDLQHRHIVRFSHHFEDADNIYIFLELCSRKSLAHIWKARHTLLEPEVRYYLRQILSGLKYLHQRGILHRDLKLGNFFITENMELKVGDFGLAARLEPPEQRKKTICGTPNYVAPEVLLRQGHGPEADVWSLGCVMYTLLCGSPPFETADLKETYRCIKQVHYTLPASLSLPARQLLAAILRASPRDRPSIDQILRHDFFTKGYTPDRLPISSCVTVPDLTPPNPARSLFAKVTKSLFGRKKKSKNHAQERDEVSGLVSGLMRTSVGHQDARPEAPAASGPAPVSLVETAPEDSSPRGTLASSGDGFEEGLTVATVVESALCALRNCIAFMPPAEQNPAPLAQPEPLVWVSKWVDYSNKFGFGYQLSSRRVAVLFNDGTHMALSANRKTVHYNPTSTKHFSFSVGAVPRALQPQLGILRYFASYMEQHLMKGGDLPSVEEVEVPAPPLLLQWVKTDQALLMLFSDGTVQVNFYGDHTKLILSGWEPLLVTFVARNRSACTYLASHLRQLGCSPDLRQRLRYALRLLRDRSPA
UniProt P24385, whole entry partner: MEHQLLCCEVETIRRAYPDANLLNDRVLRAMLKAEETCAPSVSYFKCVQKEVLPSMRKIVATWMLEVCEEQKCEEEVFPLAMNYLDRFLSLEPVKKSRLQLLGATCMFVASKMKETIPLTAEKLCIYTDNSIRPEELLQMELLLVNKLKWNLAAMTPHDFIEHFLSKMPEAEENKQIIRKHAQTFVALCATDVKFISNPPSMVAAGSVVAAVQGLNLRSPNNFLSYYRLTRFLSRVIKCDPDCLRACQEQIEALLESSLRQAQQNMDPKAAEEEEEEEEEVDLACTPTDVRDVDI
UniProt P14635, whole entry partner: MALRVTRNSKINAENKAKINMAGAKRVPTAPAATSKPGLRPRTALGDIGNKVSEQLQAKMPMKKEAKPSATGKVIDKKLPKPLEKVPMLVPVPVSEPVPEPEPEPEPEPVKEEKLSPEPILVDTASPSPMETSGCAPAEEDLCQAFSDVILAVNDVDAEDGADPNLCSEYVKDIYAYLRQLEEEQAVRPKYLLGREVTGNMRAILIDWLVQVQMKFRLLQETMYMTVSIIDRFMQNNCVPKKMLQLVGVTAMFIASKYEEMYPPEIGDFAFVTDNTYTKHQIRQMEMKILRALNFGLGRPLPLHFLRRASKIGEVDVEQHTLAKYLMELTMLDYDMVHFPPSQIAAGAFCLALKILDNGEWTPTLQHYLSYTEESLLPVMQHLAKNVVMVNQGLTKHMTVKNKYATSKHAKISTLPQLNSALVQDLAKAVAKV

How the values were obtained:
PLK4 (h) = PLK4 (h) (Homo sapiens, UniProt O00444); assay: PLK-4 human kinase inhibition, scintillation proximity assay (SPA); assay type: biochemical
AuroraB (h) = AuroraB (h) (Homo sapiens, UniProt Q96GD4); assay: Aurora-B human kinase inhibition, SPA
GSK3β (h) = GSK3β (h) (Homo sapiens, UniProt P49841); assay: GSK-3β human kinase inhibition, SPA
CDK1/CyclinB (h) = CDK1/CyclinB (h) (Homo sapiens, UniProt P06493); assay: CDK1/CyclinB human kinase inhibition, Invitrogen's FRET assay (Z'lyte)
CDK4/CyclinD1 (h) = CDK4/CyclinD1 (h) (Homo sapiens, UniProt P11802); assay: CDK4/CyclinD1 human kinase inhibition, SPA with GST-pRb substrate; assay type: biochemical
Procedure: The in vitro inhibition of a panel of kinases was assessed using either the scintillation proximity assay (SPA) as described by Cook, N. D. et al., Advances in Experimental Medicine and Biology (1991), 36; p. 525-528.
In the SPA technology the activity of the kinase of interest is measured using an appropriate biotinylated substrate that is incubated with the aforementioned kinase protein in the presence of (^33P) radiolabeled ATP. (^33P) Phosphorylation of the substrate is subsequently measured through binding of the phosphorylated substrate to streptavidine coated beads that are based on the scintillant poly(vinyl toluene) (PVT-Beads). The scintillation intensity is detected by imaging on Leadseeker.
All kinases are pre-diluted to a 10× working concentration prior to addition into the assay. The composition of the dilution buffer for each kinase is detailed below.
In a final reaction volume of 30 μl, CDK4/CyclinD1 (h) (2.5 μg/ml) is incubated with 50 mM Hepes pH 7.5, 8 mM NaF, 20 mM MgCl2, 1 mM DTT, 40 μg/ml of substrate GST-pRb, 2 nM [γ-^33P-ATP] (6.0 μCi/ml). After incubation of 60 minutes at room temperature, the reaction is stopped by addition of 40 μL of stop solution containing 8.7 mM EDTA, 0.17% Triton X-100, 25 mg/ml Glutathion SPA Beads (GE-healthcare). The plate is centrifuged and read for Scintillation topcount analyzer.

PLK1 T210D (h) = PLK1 T210D (h) (Homo sapiens, UniProt P53350, T210D); assay: PLK1 human kinase inhibition, SPA
PLK2 (h) = PLK2 (h) (Homo sapiens, UniProt Q9NYY3); assay: PLK2 human kinase inhibition, SPA
PLK3 (h) = PLK3 (h) (Homo sapiens, UniProt Q9H4B4); assay: PLK3 human kinase inhibition, SPA
HCT-116 = assay: Cellular proliferation assay (Alamar blue), HCT-116; details: 10% FCS; 72 hours with compound; Alamar blue 4 h
U87-MG = assay: Cellular proliferation assay (Alamar blue), U87-MG; details: 10% FCS; 72 hours with compound; Alamar blue 6 h
A2780 = assay: Cellular proliferation assay (Alamar blue), A2780; details: 10% FCS; 72 hours with compound; Alamar blue 24 h
MDA-MB-231 = assay: Cellular proliferation assay (Alamar blue), MDA-MB-231; details: 10% FCS; 72 hours with compound; Alamar blue 24 h

## CC(C)Nc1cc2cc(c1)Nc1nccc(n1)-c1cccc(c1)CN(C)CCNC(=O)[C@H](CO)NC2
PLK4 (h)
  PLK4 pIC50: 6.3
AuroraB (h)
  AuroraB pIC50: 5.12
GSK3β (h)
  GSK3b pIC50: 5.25
CDK1/CyclinB (h)
  CDK1 pIC50: 5.19
CDK4/CyclinD1 (h)
  CDK4 pIC50: <5
PLK1 T210D (h)
  PLK1 pIC50: <5
PLK2 (h)
  PLK2 pIC50: <5
PLK3 (h)
  PLK3 pIC50: <5

## O=C1NCCOc2cccc(c2)-c2ccnc(n2)Nc2ccc(N3CCOCC3)c(c2)CN2C[C@H](O)C[C@@H]12
PLK4 (h)
  PLK4 pIC50: 5.74
PLK1 T210D (h)
  PLK1 pIC50: <5
HCT-116
  HCT-116 (cellular proliferation assay, Table 4): <5
U87-MG
  U87-MG (cellular proliferation assay, Table 4): <5
A2780
  A2780 (cellular proliferation assay, Table 4): 5.26
MDA-MB-231
  MDA/MB231 (cellular proliferation assay, Table 4): <5

## O=C1NCCOc2cccc(c2)-c2ccnc(n2)Nc2ccc(N3CCOCC3)c(c2)CN2CCC[C@@H]12
PLK4 (h)
  PLK4 pIC50: 5.86
PLK1 T210D (h)
  PLK1 pIC50: <5
HCT-116
  HCT-116 (cellular proliferation assay, Table 4): <5
U87-MG
  U87-MG (cellular proliferation assay, Table 4): <5

## O=C1NCc2cccc(c2)-c2ccnc(n2)Nc2ccc(N3CCOCC3)c(c2)CN[C@H]1CO
PLK4 (h)
  PLK4 pIC50: 6.11
AuroraB (h)
  AuroraB pIC50: 5.24
GSK3β (h)
  GSK3b pIC50: 6.51
CDK1/CyclinB (h)
  CDK1 pIC50: <5
CDK4/CyclinD1 (h)
  CDK4 pIC50: 5.48
PLK1 T210D (h)
  PLK1 pIC50: <5
PLK2 (h)
  PLK2 pIC50: <5
PLK3 (h)
  PLK3 pIC50: <5
HCT-116
  HCT-116 (cellular proliferation assay, Table 4): 5.29
U87-MG
  U87-MG (cellular proliferation assay, Table 4): 5.04
A2780
  A2780 (cellular proliferation assay, Table 4): 5.04
MDA-MB-231
  MDA/MB231 (cellular proliferation assay, Table 4): <5
